Our source for the Ki values is ChEMBL document CHEMBL1132382 (J Med Chem, 1999).

Sequences of proteins named here, by UniProt entry; tags and fusion partners are left off. A change or cut given only in a name is not applied to a line headed by its entry.
UniProt P00915: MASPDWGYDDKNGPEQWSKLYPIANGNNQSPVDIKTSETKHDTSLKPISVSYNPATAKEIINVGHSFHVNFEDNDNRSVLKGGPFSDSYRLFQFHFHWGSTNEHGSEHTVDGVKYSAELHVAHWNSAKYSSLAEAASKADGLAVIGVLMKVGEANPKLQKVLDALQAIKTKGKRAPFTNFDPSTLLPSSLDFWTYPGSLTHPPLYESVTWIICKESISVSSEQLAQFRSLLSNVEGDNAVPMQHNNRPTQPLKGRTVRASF

For this assay, the target named is Carbonic anhydrase 1 (Homo sapiens, UniProt P00915).

On to `NCC(=O)Nc1ccc(S(N)(=O)=O)cc1`, for which the Ki (commonly the dissociation constant of the complex between target and ligand, obtained from inhibition or displacement) stood at 15 µM.
